These results are taken from article PMC3661904 (Neuropharmacology, 2012).

By UniProt entry, the sequences of proteins in these tests, tags left out. Where a name states a change or a piece, a line headed by the entry shows the natural chain unless it says otherwise. Residues count along the entry.
UniProt P32297, 32-505: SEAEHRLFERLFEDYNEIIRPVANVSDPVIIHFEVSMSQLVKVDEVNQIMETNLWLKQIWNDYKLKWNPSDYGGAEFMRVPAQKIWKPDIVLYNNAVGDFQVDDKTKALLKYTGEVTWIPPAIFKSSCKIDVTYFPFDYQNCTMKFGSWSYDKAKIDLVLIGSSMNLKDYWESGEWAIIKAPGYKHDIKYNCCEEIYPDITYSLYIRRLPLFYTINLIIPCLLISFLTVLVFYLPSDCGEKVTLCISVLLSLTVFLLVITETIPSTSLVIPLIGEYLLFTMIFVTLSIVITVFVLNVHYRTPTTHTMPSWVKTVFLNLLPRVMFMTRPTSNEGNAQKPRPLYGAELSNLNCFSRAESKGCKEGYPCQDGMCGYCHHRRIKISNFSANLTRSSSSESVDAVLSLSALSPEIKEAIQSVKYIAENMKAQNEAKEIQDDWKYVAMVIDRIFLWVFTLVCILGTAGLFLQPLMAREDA
UniProt P30532, 23-468 D398N: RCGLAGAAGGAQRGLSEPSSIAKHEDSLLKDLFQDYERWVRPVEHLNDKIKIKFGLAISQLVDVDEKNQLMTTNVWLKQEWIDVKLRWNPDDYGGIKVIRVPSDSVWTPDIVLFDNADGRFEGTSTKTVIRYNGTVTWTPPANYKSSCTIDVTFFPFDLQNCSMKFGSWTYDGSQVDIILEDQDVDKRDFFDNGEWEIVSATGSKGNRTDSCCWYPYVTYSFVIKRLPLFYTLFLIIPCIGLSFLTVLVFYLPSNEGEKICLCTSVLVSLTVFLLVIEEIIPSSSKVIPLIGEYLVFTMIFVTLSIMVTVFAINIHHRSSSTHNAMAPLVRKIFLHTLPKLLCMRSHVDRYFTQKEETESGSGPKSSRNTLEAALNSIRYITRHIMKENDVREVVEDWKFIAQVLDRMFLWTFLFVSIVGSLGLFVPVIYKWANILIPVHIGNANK
UniProt P30532, 23-468: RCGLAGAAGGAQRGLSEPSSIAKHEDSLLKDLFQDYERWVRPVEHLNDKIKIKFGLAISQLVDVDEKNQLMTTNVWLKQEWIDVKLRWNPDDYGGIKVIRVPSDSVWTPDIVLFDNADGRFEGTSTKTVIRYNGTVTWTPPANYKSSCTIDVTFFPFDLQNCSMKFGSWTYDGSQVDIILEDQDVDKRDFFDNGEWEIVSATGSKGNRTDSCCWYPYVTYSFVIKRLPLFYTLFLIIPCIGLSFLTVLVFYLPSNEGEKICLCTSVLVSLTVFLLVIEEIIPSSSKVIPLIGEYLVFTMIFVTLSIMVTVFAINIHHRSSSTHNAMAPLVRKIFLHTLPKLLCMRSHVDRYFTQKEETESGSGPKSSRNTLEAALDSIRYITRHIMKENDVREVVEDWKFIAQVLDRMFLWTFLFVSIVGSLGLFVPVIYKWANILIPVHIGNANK

As usually defined, the IC50 is the concentration that inhibits the measured activity by half.

Holding throughout (test): aequorin intracellular calcium assay, inhibition of ACh response
Holding throughout (assay type): cell-based
(A change in cytosolic calcium serves as a functional read-out for many receptors and channels.)

Experiment [1] addresses human α3β4 nicotinic acetylcholine receptor (α3β4 nAChR) (Homo sapiens, UniProt P30926+P32297).
The target in experiment [2] is human α3β4α5D nAChR (D398 variant of α5; α3β4α5N carries N398) (Homo sapiens, UniProt P30532+P30926+P32297, P30532:D398N).
The target of experiment [3] is human α3β4α5D nAChR (D398 variant of α5; α3β4α5N carries N398) (Homo sapiens, UniProt P30532+P30926+P32297).

For `CNC1(C)C2CCC(C2)C1(C)C` (stereo not drawn) [Mecamylamine], the IC50 in experiment [1] was determined as 1.18 ± 0.17 µM; in experiment [2] it was 0.44 ± 0.09 µM; in experiment [3], 0.62 ± 0.09 µM.
